For test [1], the target named is mannose-6-phosphate receptor (MPR) on Pompe patient fibroblasts (human (Pompe patient fibroblasts)) (UniProt P11717). The test can be described thus: cell-based or functional assay.
The target in test [2] is soluble extracellular domain of the bovine cation independent mannose-6-phosphate receptor (CI-MPR) (bovine) (UniProt P08169). The test can be described thus: CI-MPR Affigel-15 column, 6 ug rhGAA loaded, eluted with mannose-6-phosphate gradient, fractions assayed by 4MU-alpha-glucoside assay or ELISA.

For “recombinant human acid alpha-glucosidase (rhGAA) from CHOK1 transfectant B7 (GAA1) (from UniProt P10253 70-952) (enzyme)”, the Kuptake GM248 (nM); B7 grown in JRH-302 medium in test [1] came out at 1.6 nM.
“recombinant human acid alpha-glucosidase (rhGAA) from DUXB11 CHO clone 3.1.36 (from UniProt P10253 57-952) (enzyme)”: the Kuptake (rate of enzyme uptake) into GM244 Pompe patient fibroblasts, 4 h, GAA activity in lysate by 4MU-alpha-glucoside assay in test [1] was 2.95 nM.
For “recombinant human acid alpha-glucosidase (rhGAA) from G71 transfectant C3-S (GAA1-M), adapted to suspension culture (from UniProt P10253 70-952) (enzyme)”, in test [1], the Kuptake GM248 (nM); C3-S grown in CD-CHO medium turned out to be 2.1 nM and the Kuptake GM248 (nM); C3-S grown in JRH-302 medium was 1.9 nM.
“recombinant human acid alpha-glucosidase (rhGAA) from G71 transfectant F5 (GAA1-M) (from UniProt P10253 70-952) (enzyme)” came in with a Kuptake GM248 (nM); F5 grown in JRH-302 medium in test [1] of 2.2 nM. In test [2], this substance showed a percent of enzyme bound to immobilized MPR of 70%.

The values above are taken from patent publication US20090191178A1.
